This is a selection; strong and weak results do not stand in their true shares. Results filed as inconclusive are left out. Active and inactive are the calls of the source. Calls follow the shape of the dose curve; as a rule, active = well fitted inhibition curve with a large enough effect; inconclusive = small, poorly fitted or top-dose-only effect, or another doubt; inactive = no such curve, though single readings can be large or run the other way.
target: DNA polymerase beta (Homo sapiens) (UniProt P06746); test: qHTS Assay for Inhibitors of DNA Polymerase Beta; settings: Pol beta primer extension/strand displacement, fluorescence kinetic; series mostly up to 114 µM; activity change, negative = inhibition: at the top concentration
Excerpt: The base excision repair system in human cells is a target for therapeutic modulation of the response to irradiation treatment and DNA-damaging drugs. A key enzyme in this system is the bi-functional DNA polymerase known as DNA polymerase Beta (Pol Beta). The following is a homogeneous kinetic assay to study the primer extension and strand-displacement reaction catalyzed by pol beta.
A stepwise description of the 1536-well assay is shown in next Table. Three microliters of reagents (buffer in column 3 and 4 as negative control and 10 nM Pol beta in columns 1, 2, and 5-48) was dispensed into 1,536-well black solid-bottomed plate. Compounds (23 nL) were transferred via Kalypsys pin tool equipped with 1536-pin array (10 nL slotted pins, V&P Scientific, San Diego, CA). The plates were incubated for 15 min at room temperature, and 1 uL substrate (50 nM final concentration) were added to start the reaction and immediately read at 0 min read on Viewlux reader. The plate were further incubated for 10 min at room temperature, and then read on Viewlux again. Throughout the screen, reagent bottle and all liquid lines were chilled and made light-tight to minimize reagent degradation. All screening operations were performed on a fully integrated robotic system (Kalypsys, San Diego, CA) containing one RX-130 and two RX-90 anthropomorphic robotic arms (Staubli, Duncan, SC). Library plates were screened starting from the lowest and proceeding to the highest concentration, and a double-dipping step of the highest concentration was required to access higher concentrations of compounds. Vehicle-only plates, with DMSO being pin-transferred to the entire column 5-48 compound area, were inserted uniformly at the beginning and the end of each library in order to monitor for and record any shifts in the background, which can be affected by reagent dispensers or loss in enzyme activity overtime. Screening data were corrected, normalized, and concentration-effect relationships were derived by using publicly-available curve fitting algorithms developed in-house (http://ncgc.nih.gov/pub/openhts). A four parameter Hill equation was fitted to the concentration-response data by minimizing the residual error between the modeled and observed responses.
% is scaled to controls: 0 for no effect and ±100 for the full control effect; potency is read from the fitted curve at half-maximal effect.

Which “activity change, negative = inhibition” value does the source give for O=[N+]([O-])c1cc([N+](=O)[O-])c(CCNc2ccccc2)c([N+](=O)[O-])c1 here?
Its value is inactive: -3.23%.

How did the “activity change, negative = inhibition” value turn out when COc1ccc(C2=NCC(CBr)S2)cc1 (stereo not drawn) was run?
The value was inactive: 0.629%.

CCC(C)N(CC(C)C)C(=S)SC(NC(C)=O)C(Cl)(Cl)Cl (stereo not drawn) was tested. Which “activity change, negative = inhibition” value did it give?
Its value is inactive: 13.3%.

CCOC(=O)c1ccc(NC(=O)C(C)(CCl)SC)cc1 (stereo not drawn) was tested. Which “activity change, negative = inhibition” value did it give?
The value was inactive: 16.1%.

With O=C(OC1CN2CCC1CC2)c1cccc([N+](=O)[O-])c1 (stereo not drawn) as the molecule, how does the “activity change, negative = inhibition” value read?
The value was inactive: 39.6%.

With O=C(COc1ccccc1)OC1CN2CCC1CC2 (stereo not drawn) as the molecule, how does the “activity change, negative = inhibition” value read?
Its value is inactive: -1.84%.

How did the “activity change, negative = inhibition” value turn out when O=C(Nc1ccncc1[N+](=O)[O-])c1ccc([N+](=O)[O-])cc1[N+](=O)[O-] was run?
Its value is inactive: 20%.

Which “activity change, negative = inhibition” value does the source give for COP1(=S)c2c(C)nn(CCC#N)c2N=C(c2ccc(F)cc2)N1C (stereo not drawn) here?
Its value is inactive: -20.3%.

Cc1cc(SC(NC=O)C(Cl)(Cl)Cl)ncn1 (stereo not drawn) was tested. Which “activity change, negative = inhibition” value did it give?
Its value is inactive: 0.39%.

Which “activity change, negative = inhibition” value does the source give for CCOC(=O)Nc1cccc([As](=O)(O)O)c1 here?
Its value is inactive: -19.3%.

Which “activity change, negative = inhibition” value does the source give for CCCCOc1ccc(C(=O)NCC2(N3CCCCC3)CCCCC2)cc1OC here?
Its value is inactive: -10.1%.

Cc1cc(SC(NC(=O)c2ccccc2)C(Cl)(Cl)Cl)nc(C(C)C)n1 (stereo not drawn) was tested. Which “activity change, negative = inhibition” value did it give?
The value was inactive: 1.12%.

Which “activity change, negative = inhibition” value does the source give for CCN(CC)C(=S)SC(NC=O)C(Cl)(Cl)Cl (stereo not drawn) here?
The value was inactive: 38%.

Which “activity change, negative = inhibition” value does the source give for CC(C)NC(=O)NP(=O)(Oc1ccccc1)Oc1ccccc1 here?
The value was inactive: 22.7%.

O=[N+]([O-])c1cc([N+](=O)[O-])c(-c2ccn[nH]2)s1 was tested. Which “activity change, negative = inhibition” value did it give?
The value was inactive: -13.5%.

CC(C)c1ccc(OP(=O)(Nc2ccccn2)Oc2ccccc2F)cc1 (stereo not drawn) was tested. Which “activity change, negative = inhibition” value did it give?
Its value is inactive: -1.07%.

For ClCCSc1nnc(-c2cccnc2)o1, which “activity change, negative = inhibition” value is on record?
Its value is inactive: 1.67%.

For Cc1ccc2nc3c(c(C)c2c1)CC(C(Cl)Cl)S3 (stereo not drawn), which “activity change, negative = inhibition” value is on record?
Its value is inactive: -0.36%.

For Cc1ccc(OP(=O)(Nc2ccc([N+](=O)[O-])cn2)Oc2ccc(C)cc2)cc1, which “activity change, negative = inhibition” value is on record?
The value was inactive: -7.49%.

With C[As](=O)(O)c1cccc(C(=O)O)c1 as the molecule, how does the “activity change, negative = inhibition” value read?
Its value is inactive: -1.58%.

For O=[As](O)(c1ccc(O)cc1)c1ccccc1O, which “activity change, negative = inhibition” value is on record?
The value was inactive: 3.84%.

With COc1ccc(N/C(=N/P(=O)(N2CCOCC2)N2CCOCC2)N2CCOCC2)cc1 as the molecule, how does the “activity change, negative = inhibition” value read?
Its value is inactive: -14.9%.

For COc1ccc2nc(NP(=O)(c3ccccc3)c3ccccc3)sc2c1, which “activity change, negative = inhibition” value is on record?
Its value is inactive: 0.276%.

For COc1cc(I)ccc1[As](=O)(O)O, which “activity change, negative = inhibition” value is on record?
Its value is inactive: 4.35%.

With O=C(OC1CN2CCC1CC2)C12CC3CC(CC(C3)C1)C2 (stereo not drawn) as the molecule, how does the “activity change, negative = inhibition” value read?
The value was inactive: 0.874%.

How did the “activity change, negative = inhibition” value turn out when Cc1cc(=O)[nH]c(N[N+](=O)[O-])n1 was run?
Its value is inactive: -27.3%.

COc1cc(C2NCCC3(OCCO3)C2(C)C)cc(OC)c1OC (stereo not drawn) was tested. Which “activity change, negative = inhibition” value did it give?
Its value is inactive: 17.2%.

How did the “activity change, negative = inhibition” value turn out when CCOP(=O)(Nc1cccc2ccccc12)OCC was run?
The value was inactive: 3.35%.

Which “activity change, negative = inhibition” value does the source give for CCCOP(=S)(Nc1nc(N)cc(=O)[nH]1)OCCC here?
The value was inactive: 19.3%.

Which “activity change, negative = inhibition” value does the source give for Cc1ccc(NCCc2c([N+](=O)[O-])cc([N+](=O)[O-])cc2[N+](=O)[O-])cc1 here?
Its value is inactive: -7.51%.

With Nc1cccc2c([As](=O)(O)O)cccc12 as the molecule, how does the Potency read?
The Potency was active: 28.2 µM.

For O=[As](O)(c1cccc(O)c1)c1cccc(O)c1, which “activity change, negative = inhibition” value is on record?
Its value is inactive: 23.2%.

For Cc1cccc(OCC(=O)OC2CN3CCC2CC3)c1 (stereo not drawn), which “activity change, negative = inhibition” value is on record?
The value was inactive: 3.68%.

How did the “activity change, negative = inhibition” value turn out when COc1cc(C(=O)NCC2(N3CCOCC3)CCCCC2)cc(Cl)c1OC(C)C was run?
Its value is inactive: 28.6%.

With O=[As](O)(O)c1cccnc1 as the molecule, how does the “activity change, negative = inhibition” value read?
Its value is inactive: 35.2%.

For CS(=O)(=O)c1ccc(Cl)c(NC(=O)COC(=O)C(O)(c2ccccc2)c2ccccc2)c1, which “activity change, negative = inhibition” value is on record?
Its value is inactive: 1.05%.

Which “activity change, negative = inhibition” value does the source give for O=C(OC1CN2CCC1CC2)c1ccc(Cl)cc1 (stereo not drawn) here?
Its value is inactive: -8.5%.

With CN(C(=O)Cc1ccc(Cl)c(Cl)c1)[C@@H]1CC[C@]2(CCCO2)C[C@H]1N1CCCC1 as the molecule, how does the “activity change, negative = inhibition” value read?
Its value is inactive: 25.8% [at 57.1 µM].

O=[N+]([O-])c1ccc2c(c1)nnn2O was tested. Which “activity change, negative = inhibition” value did it give?
The value was inactive: -1.95%.

With CN(C(=O)Cc1ccccc1)[C@@H]1CC[C@]2(CCCO2)C[C@H]1N1CCCC1 as the molecule, how does the Potency read?
The Potency was “inactive”.

With CCOP1(=S)c2c(C)nn(CCC#N)c2N=C(c2ccc(F)cc2)N1C (stereo not drawn) as the molecule, how does the “activity change, negative = inhibition” value read?
The value was inactive: -10.3%.

NC(=O)Nc1ccc([As](=O)(O)O)cc1 was tested. Which “activity change, negative = inhibition” value did it give?
The value was inactive: -9.53%.

With Nc1ccccc1[As](=O)(O)c1ccccc1 as the molecule, how does the “activity change, negative = inhibition” value read?
The value was inactive: -7.81%.

For O=C(O)COc1ccc([As](=O)(O)O)cc1[N+](=O)[O-], which “activity change, negative = inhibition” value is on record?
The value was inactive: 1.92%.

How did the “activity change, negative = inhibition” value turn out when CS(=O)(=O)c1cc([N+](=O)[O-])c2no[n+]([O-])c2c1 was run?
The value was inactive: 22.3%.

CCOP1(=S)c2c(C)nn(CCC#N)c2N=C(c2ccccc2F)N1C (stereo not drawn) was tested. Which “activity change, negative = inhibition” value did it give?
Its value is inactive: 2.67%.

For O=P(Nc1nccs1)(c1ccccc1)c1nc2ccccc2s1 (stereo not drawn), which “activity change, negative = inhibition” value is on record?
Its value is inactive: -9.36%.

With O=P(Nc1nccs1)(Oc1ccccc1)Oc1ccccc1 as the molecule, how does the “activity change, negative = inhibition” value read?
The value was inactive: -1.85%.

Which “activity change, negative = inhibition” value does the source give for O=P1(Nc2ccc(Br)cn2)COc2ccccc2OC1 here?
The value was inactive: 4.27%.

Which “activity change, negative = inhibition” value does the source give for Cc1ccc(OCC(=O)OC2CN3CCC2CC3)cc1 (stereo not drawn) here?
The value was inactive: 14.5%.

How did the “activity change, negative = inhibition” value turn out when O=[As](O)(c1cccs1)c1cccs1 was run?
The value was inactive: 13.4%.

Which “activity change, negative = inhibition” value does the source give for Nc1cccc([As](=O)(O)c2ccccc2)c1 here?
Its value is inactive: 0.0057%.

How did the “activity change, negative = inhibition” value turn out when O=P1(Nc2ncccn2)COc2ccccc2OC1 was run?
The value was inactive: -14.4%.

How did the “activity change, negative = inhibition” value turn out when O=C(/C=C/c1ccccc1)OC1CN2CCC1CC2 (stereo not drawn) was run?
Its value is inactive: 3%.

CN(C)C1(CNC(=O)c2ccc(S(C)(=O)=O)cc2)CCCCC1 was tested. Which “activity change, negative = inhibition” value did it give?
Its value is inactive: 20%.

Which “activity change, negative = inhibition” value does the source give for Cc1nn(-c2ccccc2)c2c1P(=O)(N1CCOCC1)N(C)C(c1ccccc1)=N2 (stereo not drawn) here?
Its value is inactive: 0.681%.

With CC1CCC(C(C)C)C(OP(=O)(Nc2ccccn2)c2ccccc2)C1 (stereo not drawn) as the molecule, how does the “activity change, negative = inhibition” value read?
The value was inactive: -0.946%.

Which “activity change, negative = inhibition” value does the source give for Cc1ccc(C(=O)OC2CN3CCC2CC3)cc1 (stereo not drawn) here?
The value was inactive: 7.97%.

For O=[As](O)(c1ccccc1Br)c1ccccc1Br, which “activity change, negative = inhibition” value is on record?
The value was inactive: -18.3%.

CC(C)/C=N\N=C(\N)N[N+](=O)[O-] was tested. Which “activity change, negative = inhibition” value did it give?
The value was inactive: -28.7%.

How did the Potency turn out when CN(C(=O)Cc1ccc(Cl)c(Cl)c1)[C@@H]1CCCC[C@H]1N1CCCC1 was run?
The Potency was “inactive”.

For Clc1n[nH]nc1-c1nn[nH][15n]1, which “activity change, negative = inhibition” value is on record?
The value was inactive: -1.68%.

For CC(C)(C)C(=O)NC(Sc1ncccn1)C(Cl)(Cl)Cl (stereo not drawn), which “activity change, negative = inhibition” value is on record?
Its value is inactive: 87.6%.

How did the “activity change, negative = inhibition” value turn out when CN(CCCl)Cc1cc(Cl)c(NC2=NCCN2)c(Cl)c1 was run?
Its value is inactive: 11.5% [at 57.1 µM].

For CCOP(=O)(Nc1ccc(C)cn1)OCC, which “activity change, negative = inhibition” value is on record?
Its value is inactive: 15.6%.

How did the “activity change, negative = inhibition” value turn out when O=P1(Nc2ccccn2)COc2ccccc2OC1 was run?
The value was inactive: 1.04%.

For CCC1=CC2Cc3nc4ccc(Cl)cc4c(N)c3C(C1)C2 (stereo not drawn), which “activity change, negative = inhibition” value is on record?
The value was inactive: 0.0204%.

Which “activity change, negative = inhibition” value does the source give for CCOP(=O)(NC(=NC(C)c1ccccc1)NC(C)c1ccccc1)OCC (stereo not drawn) here?
The value was inactive: 13.8%.
